Columns and labels:
Assay in all cases: apparent dissociation constant pKd app (kinobead competition) (-log10(M)); higher = stronger binding
RIOK2 = RIOK2 (UniProt Q9BVS4)
CHEK2 = CHEK2 (UniProt O96017)
PIM1 = PIM1 (UniProt P11309)
MARK3 = MARK3 (UniProt P27448)
RPS6KA1 = RPS6KA1 (UniProt Q15418)
EPHB4 = biological target: T1, EPHB4 (UniProt P54760)
T1 sequence (whole entry): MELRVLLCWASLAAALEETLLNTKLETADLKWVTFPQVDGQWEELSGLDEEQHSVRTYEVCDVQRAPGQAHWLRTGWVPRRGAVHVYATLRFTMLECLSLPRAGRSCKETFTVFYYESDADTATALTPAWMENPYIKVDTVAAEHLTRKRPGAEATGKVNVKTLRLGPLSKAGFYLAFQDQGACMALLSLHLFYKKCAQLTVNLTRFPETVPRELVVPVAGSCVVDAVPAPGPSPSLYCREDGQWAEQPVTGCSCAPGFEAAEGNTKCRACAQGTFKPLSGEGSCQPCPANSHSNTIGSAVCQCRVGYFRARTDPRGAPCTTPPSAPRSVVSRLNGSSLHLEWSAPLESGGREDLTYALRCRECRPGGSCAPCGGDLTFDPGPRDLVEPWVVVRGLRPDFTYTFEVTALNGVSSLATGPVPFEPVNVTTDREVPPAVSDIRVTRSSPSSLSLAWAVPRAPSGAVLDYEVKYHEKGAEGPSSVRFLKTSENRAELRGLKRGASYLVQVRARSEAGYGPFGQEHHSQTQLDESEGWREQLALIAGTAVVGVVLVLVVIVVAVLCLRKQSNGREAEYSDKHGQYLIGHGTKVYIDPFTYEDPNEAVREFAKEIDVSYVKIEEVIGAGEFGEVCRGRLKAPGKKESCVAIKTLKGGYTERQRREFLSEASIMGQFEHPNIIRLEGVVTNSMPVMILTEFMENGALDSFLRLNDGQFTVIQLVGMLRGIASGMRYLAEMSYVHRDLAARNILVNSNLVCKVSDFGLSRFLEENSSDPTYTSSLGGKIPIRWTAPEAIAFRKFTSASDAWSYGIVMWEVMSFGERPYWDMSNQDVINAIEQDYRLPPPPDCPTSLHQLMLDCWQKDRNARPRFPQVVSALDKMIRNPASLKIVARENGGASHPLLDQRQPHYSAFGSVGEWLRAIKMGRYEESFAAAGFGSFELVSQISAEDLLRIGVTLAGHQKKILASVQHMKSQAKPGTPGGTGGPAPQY

MAP4K5 = MAP4K5 (UniProt Q9Y4K4)
CDKL5 = biological target: T2, CDKL5 (UniProt O76039)
T2 sequence (whole entry): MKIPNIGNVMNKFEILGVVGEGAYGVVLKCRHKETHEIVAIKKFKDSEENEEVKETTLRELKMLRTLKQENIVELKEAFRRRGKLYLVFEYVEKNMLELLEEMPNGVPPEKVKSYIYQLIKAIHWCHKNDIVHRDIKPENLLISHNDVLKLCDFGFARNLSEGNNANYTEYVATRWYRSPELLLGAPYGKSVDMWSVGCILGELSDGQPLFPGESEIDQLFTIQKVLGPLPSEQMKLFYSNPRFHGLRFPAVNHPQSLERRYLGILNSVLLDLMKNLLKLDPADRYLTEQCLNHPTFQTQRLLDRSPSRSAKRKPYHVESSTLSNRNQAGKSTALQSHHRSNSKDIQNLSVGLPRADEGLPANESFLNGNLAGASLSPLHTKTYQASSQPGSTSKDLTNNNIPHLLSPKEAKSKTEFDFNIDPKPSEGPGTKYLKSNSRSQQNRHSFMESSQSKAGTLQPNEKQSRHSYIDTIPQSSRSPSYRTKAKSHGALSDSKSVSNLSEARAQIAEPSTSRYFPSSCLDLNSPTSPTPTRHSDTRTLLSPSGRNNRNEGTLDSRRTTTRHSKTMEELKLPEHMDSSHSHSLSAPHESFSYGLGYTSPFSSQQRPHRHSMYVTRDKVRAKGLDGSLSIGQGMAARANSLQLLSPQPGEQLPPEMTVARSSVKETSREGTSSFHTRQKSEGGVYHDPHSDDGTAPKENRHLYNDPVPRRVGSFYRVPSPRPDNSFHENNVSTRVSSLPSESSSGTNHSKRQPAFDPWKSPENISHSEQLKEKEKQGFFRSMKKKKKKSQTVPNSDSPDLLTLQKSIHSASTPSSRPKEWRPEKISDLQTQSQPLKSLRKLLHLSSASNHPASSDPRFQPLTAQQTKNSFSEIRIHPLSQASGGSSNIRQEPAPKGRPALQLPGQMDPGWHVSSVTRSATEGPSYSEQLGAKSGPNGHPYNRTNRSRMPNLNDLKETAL

apparent dissociation constant pKd app (-log10) (RIOK2) | apparent dissociation constant pKd app (-log10) (CHEK2) | apparent dissociation constant pKd app (-log10) (PIM1) | apparent dissociation constant pKd app (-log10) (MARK3) | apparent dissociation constant pKd app (-log10) (RPS6KA1) | apparent dissociation constant pKd app (-log10) (EPHB4) | apparent dissociation constant pKd app (-log10) (MAP4K5) | apparent dissociation constant pKd app (-log10) (CDKL5) | SMILES
< 4.5 | < 4.5 | < 4.7 | < 4.6 | < 4.5 | < 4.7 | < 4.5 | < 4.7 | O=C(c1cc(Cc2n[nH]c(=O)c3ccccc23)ccc1F)N1CCN(C(=O)C2CC2)CC1 [Olaparib]
< 4.5 | < 4.5 | < 4.7 | < 4.6 | < 4.5 | < 4.7 | < 4.5 | < 4.7 | NC(=O)c1cccc2cn(-c3ccc([C@@H]4CCCNC4)cc3)nc12 [Niraparib]
< 4.5 | < 4.5 | < 4.7 | < 4.6 | < 4.5 | < 4.7 | < 4.5 | < 4.7 | Cn1ncnc1[C@H]1c2n[nH]c(=O)c3cc(F)cc(c23)N[C@@H]1c1ccc(F)cc1 [Talazoparib]

— the supplement of paper PMC11403291
